## Yeast mating assay 1: variants of the scFv Ab-14

From the AlphaSeq antibody data of Engelhart et al. 2022 (doi:10.1038/s41597-022-01779-4), copy in the FLAb collection.

Binding partner: SARS-CoV-2 spike HR2 peptide, sequence PDVDLGDISGINAS.

The variants keep the heavy chain, the linker and the frameworks of Ab-14 (scFv order VH, a 15-residue (Gly4Ser)3 linker, VL).
VH: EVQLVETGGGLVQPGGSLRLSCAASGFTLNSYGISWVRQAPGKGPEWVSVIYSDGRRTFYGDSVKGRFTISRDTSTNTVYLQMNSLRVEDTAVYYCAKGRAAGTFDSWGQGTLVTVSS
VL: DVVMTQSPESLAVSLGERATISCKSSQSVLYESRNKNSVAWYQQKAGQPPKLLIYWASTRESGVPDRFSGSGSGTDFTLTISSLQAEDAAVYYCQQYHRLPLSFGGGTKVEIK

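Phage display of a naive human antibody library on the peptide gave the parent. The library (AAYL50) carries one to three amino acid substitutions per variant, with no insertions or deletions. The assay is AlphaSeq: two haploid yeast populations carry antibody and antigen on their surface. Mating (16 h, 30 °C) was followed by selection of diploids and sequencing of their barcodes. A regression on co-assayed BCL2-family reference pairs converts the normalised counts of each replicate to an apparent Kd. There are three technical replicates.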

Each variant is given by its three light chain CDRs, as the data file delimits them; those of the parent are KSSQSVLYESRNKNSVA, WASTRES, QQYHRLPLS. Numbers give log10(Kd / nM), so 0 is 1 nM and 3 is 1 µM. Smaller is tighter. Averages over replicates are reported, and they cover detected replicates only. Where no diploid with the target was found in any replicate, the entry reads "nd": below detection, most likely a poor binder, though not proof of it.

mean log10 Kd (nM)	detected	empty controls	CDR-L1	CDR-L2	CDR-L3
nd	0/3	1/9	KSSQSVLMESRNKNSQA	WASTRES	YQYHRLPLS
1.19	3/3	4/9	KQSQSVLYESRNKNSVA	WASTREH	QSYHRLPLS
nd	0/3	1/9	KSSQSVLYESRNKNSQA	WASTRES	QGYHRLPLS
3.02	3/3	0/9	KSSQSVLWESRNKNSVA	WASTRES	QQYIRLPLY
3.52	3/3	3/9	KSSQSVLYESRNKNSVA	WASVRES	QQFHRLPLS
1.12	3/3	1/9	KSSQLVLYESRNKNSVA	WASTKES	QQYHRLPLI
1.49	3/3	3/9	KSSQSVLYESRNFNSVA	WASTRES	WQYLRLPLS
nd	0/3	0/9	KSSQSVLYESRNKPSVA	WASTRES	QQYHRMRLS
0.50	3/3	2/9	KSSQSVLYEDRNKNSVA	WASTRFS	QQYHRLPPS
2.03	3/3	2/9	KSSQSVCYESRNMNSVA	WASTRES	QQIHRLPLS
nd	0/3	0/9	KSSQSVLYESRNKNWQA	WASTRES	QQYHRLPLV
3.48	2/3	0/9	LSSQSVLYESRNKNSVA	WASTREW	QQYHRLPLS
0.66	3/3	3/9	KISQSVLYESRNKNSVA	WISTRIS	QQYHRLPLS
4.35	1/3	0/9	KSYQSVLYESRNKNEVA	WASTRES	QQYHRLPVS
1.66	3/3	3/9	KSSQSVQYESRNKNSVA	WASTRES	TQTHRLPLS
4.30	1/3	2/9	KSSQSVLYESLNKNSVY	WASTRES	QQYHILPLS
nd	0/3	4/9	KKSQSVLYESENKNSVP	WASTRES	QQYHRLPLS
nd	0/3	0/9	KSSQSELYESKNKNSVA	WASTRES	QQYHRLPLL
6.16	1/3	4/9	KQSQSVLYESRNKNSVA	WASTRES	QYYHDLPLS
nd	0/3	0/9	KSSQSVLYESRNKNSIT	WASTRES	QQYHRLPLN
nd	0/3	1/9	KSSQDVLYESRNKNSEA	WASTRES	QQEHRLPLS
1.19	3/3	0/9	KSSQSVWYESRNTNSVA	WAQTRES	QQYHRLPLS
1.20	3/3	1/9	KSSQSVLYESRNKNSVA	WASTREL	QQIKRLPLS
nd	0/3	1/9	KSSQSGLYESRNKNSGA	MASTRES	QQYHRLPLS
3.81	1/3	1/9	KSSQSVLYESRNKNSVA	WAITREP	QQYHPLPLS
nd	0/3	0/9	KSSQSKLYESRNKNSVA	PASTRES	QQYHRYPLS
2.11	3/3	0/9	KSSQSVLYESRNKLSVA	WASTRES	QQYHRLPLC
3.91	2/3	5/9	KSSQSVLYESRNKNSKA	WASTRES	QQYHRLPHS
3.09	3/3	1/9	KSSQSVLYESRNKNSVA	WAHTRES	QGYHTLPLS
2.59	3/3	2/9	KSSQSVLYTSRNKNSVA	WMSTRES	QRYHRLPLS
3.06	1/3	0/9	KSSQSVNYESRNKNFVA	WASTRES	QQYHRLPLS
nd	0/3	1/9	KESQSVLYESRNKNSPA	WASTRMS	QQYHRLPLS
3.49	1/3	1/9	KSSQSVLYESRNKWSVA	WASTRES	QQYHRCPLS
2.73	3/3	3/9	KSSQSVLYVSRNKNSVA	WASFRES	QQYHRLQLS
3.48	1/3	0/9	KSSCSVLYESRNKNSVA	WASTSES	QQYHRFPLS
1.63	3/3	7/9	KSSQSVLYESRVKHSVA	WASTRES	QVYHRLPLS
3.61	2/3	2/9	KSSQSVLYESRNKNSVA	WASTAWS	QQYHDLPLS
1.77	3/3	1/9	KSSLSWLYISRNKNSVA	WASTRES	QQYHRLPLS
1.61	3/3	3/9	KSSQSVLYESRNKNSVA	WASTREQ	QQFYRLPLS
3.86	1/3	0/9	KSSQSKLYESRWKNSVA	WASERES	QQYHRLPLS
0.27	3/3	1/9	KSSQSVLEESRNKNSVA	WASTRES	QSYHRLSLS
1.30	3/3	1/9	KSSLSYLYESRNKNSVA	WASTRTS	QQYHRLPLS
0.79	3/3	0/9	KSSQSVMYESRNKNSVA	TASTRES	QQAHRLPLS
2.84	1/3	0/9	KSSQSVLYESRNDNSVA	WASTRES	WQYHRLCLS
nd	0/3	0/9	RSSQSVLYESRNKNSVA	WFSTRES	QQYHRLFLS
4.60	1/3	1/9	KSSQSVLYESINKNSVA	WASTCES	QNYHRLPLS
1.12	3/3	0/9	KSSQSVLSESRNKCSVA	WASTRES	QQYHRLPLS
nd	0/3	1/9	KHSQSVLYESRNKNSVA	WASTRES	QCQHRLPLS
3.24	1/3	0/9	KSSQSVLYESRNKNSVA	WATTVES	QQYHRLPMS
nd	0/3	3/9	KSLQSVLYKSRNKNSVA	WASTRES	QQYHSLPLS
1.96	3/3	0/9	KSSQSVLYESRMKNSVA	WASTREG	QQYHRFPLS
3.76	2/3	1/9	KSSQSVLYESRNKNSVA	QASCRES	QQNHRLPLS
1.08	3/3	1/9	KVSQSVLYESRNKNSVA	WASTREP	QQNHRLPLS
nd	0/3	0/9	KSSQSVLYISRNKNSVA	WASTRES	QQYHRLPLK
1.51	3/3	2/9	KSSQSVLYESRNYNSVA	WASTRES	QQYHRKPLS
1.66	3/3	2/9	KSSQSVLHLSRNKNSVA	WASTRES	QQYHRLPLS
0.47	3/3	0/9	KSSQSRLYESRNKNSVA	WASTRES	CTYHRLPLS
3.42	1/3	2/9	KSSRSVLYESRNKNSPA	WASTRES	QQYHRLPTS
0.48	3/3	0/9	KSSQSVLYESRNVNSVA	WGSTRES	QQSHRLPLS
0.04	3/3	3/9	KSIQSVLYESRNKNSVA	EASCRES	QQYHRLPLS
nd	0/3	0/9	KSSQSVLYESRNKNHVA	WASTWNS	QQYHRLPLS
2.29	3/3	2/9	KSSIKVLYESRNKNSVA	WAHTRES	QQYHRLPLS
nd	0/3	1/9	KSSQSVLYESRNKNSVD	WASTREI	QQYHRLPHS
4.69	1/3	0/9	KSSLSVLYESRNKNSVA	WASTRES	GQYHRLPLS
5.63	2/3	2/9	KSSQSVLYTSRNKNSVA	WSSTRES	QQYHRLPDS
1.08	3/3	2/9	KSSQSVLVESTNKNSVA	WKSTRES	QQYHRLPLS

A selection of 5 entries from above:

CDR-L1	CDR-L2	CDR-L3	mean log10 Kd (nM)	detected	empty controls
KSSQSVLHLSRNKNSVA	WASTRES	QQYHRLPLS	1.66	3/3	2/9
KSLQSVLYKSRNKNSVA	WASTRES	QQYHSLPLS	nd	0/3	3/9
KSSQSVLYESRNKNSQA	WASTRES	QGYHRLPLS	nd	0/3	1/9
KSSLSWLYISRNKNSVA	WASTRES	QQYHRLPLS	1.77	3/3	1/9
KVSQSVLYESRNKNSVA	WASTREP	QQNHRLPLS	1.08	3/3	1/9

As a blank, each scFv also met three strains without target: over library AAYL50, 18% of these pairings were detected, typically at 4.19 and seldom below 2.99. Also given: how often the same scFv was detected with the empty control strains. In this assay the parent's reference entry averaged 0.65; its copy inside this library read 1.68.